Yeast mating assay 2: variants of the scFv Ab-91

From the AlphaSeq antibody data of Engelhart et al. 2022 (doi:10.1038/s41597-022-01779-4), copy in the FLAb collection.

The target is the same throughout: PDVDLGDISGINAS, from the HR2 region of SARS-CoV-2 spike.

Parent scFv Ab-91: VL joined to VH by a (GGGGS)3 linker. Changes lie in the heavy chain CDRs alone.
VL: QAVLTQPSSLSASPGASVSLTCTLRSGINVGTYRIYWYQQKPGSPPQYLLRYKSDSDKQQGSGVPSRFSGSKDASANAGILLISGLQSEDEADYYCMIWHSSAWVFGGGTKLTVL
VH: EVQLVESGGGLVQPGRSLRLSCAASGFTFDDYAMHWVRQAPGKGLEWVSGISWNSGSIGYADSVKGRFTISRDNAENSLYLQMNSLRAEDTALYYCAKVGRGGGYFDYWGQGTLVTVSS

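The parent was found by panning a naive human phage display library on the peptide. Variants in AAYL51 differ from the parent at up to three CDR positions; double and triple changes were sampled at random. Affinity was read by AlphaSeq, a pooled yeast mating assay with surface-displayed partners. The frequency of each diploid, read from paired DNA barcodes, reflects how well the two displayed proteins bind. A regression on co-assayed BCL2-family reference pairs converts the normalised counts of each replicate to an apparent Kd. The assay was run in three technical replicates.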

Changes read parent residue, position, new residue, counted from the first residue of the VH shown. Scale: log10 of Kd in nM, estimated from mating counts; low values are strong binders. The mean shown is taken over the replicates in which the pair was detected. "ND" means that the variant was in the library but no mating with the target was seen in that replicate; the authors take this as a sign of poor binding, and no number exists. Entries are sorted by rising average, undetected variants last. In this assay the parent's reference entry averaged 1.86; its copy inside this library read 0.88. Background: pairings of library AAYL51 with three empty control strains gave a value in 21% of cases (median 4.54, 5th percentile 3.26). Values in that range, when seen in few replicates, are hard to tell from nonspecific mating. For each scFv, signals with the empty controls are counted beside the result, with their mean in brackets.

| changes | replicates, log10 nM | mean, log10 nM | signal with controls |
|---|---|---|---|
| D30I A33S W53Y | 0.67 / 0.73 / 0.08 | 0.49 | 5/9 (4.13) |
| T28Q I58A K65E | 1.12 / 1.08 / 0.29 | 0.83 | 6/9 (5.03) |
| T28H Y60L G104S | 1.11 / 1.24 / 0.89 | 1.08 | 4/9 (3.90) |
| F27D T28I G56Q | 2.77 / 3.02 / 2.35 | 2.71 | 4/9 (5.09) |
| T28M N54Y G56W | ND / ND / 2.83 | 2.83 | 0/9 |
| D62G K65I G103A | 3.10 / 3.26 / 2.83 | 3.06 | 1/9 (3.99) |
| G56K Y60V F106N | 3.58 / 3.09 / 3.07 | 3.25 | 2/9 (5.45) |
| M34K H35T Y105A | 4.25 / 3.67 / ND | 3.96 | 1/9 (4.05) |
| A33P G59H Y108N | 3.87 / 4.32 / ND | 4.10 | 1/9 (5.01) |
| F27M D30G | 3.69 / 4.72 / 4.23 | 4.22 | 3/9 (4.24) |
| T28P G56P V99G | 4.36 / ND / ND | 4.36 | 2/9 (3.36) |
| F29I H35W G100L | 4.60 / ND / ND | 4.60 | 4/9 (4.77) |
| R101A G104H | ND / ND / 4.72 | 4.72 | 2/9 (3.57) |
| G26S S57P G102D | 4.84 / ND / ND | 4.84 | 5/9 (4.74) |
| S55R V64A Y108H | 4.85 / 4.87 / ND | 4.86 | 0/9 |
| D31V Y32D H35V | 4.89 / ND / ND | 4.89 | 1/9 (3.60) |
| Y32D G104K Y105R | 5.13 / 4.78 / ND | 4.95 | 5/9 (4.40) |
| G100D Y105G | 4.91 / 6.61 / 3.53 | 5.02 | 4/9 (4.62) |
| T28G D31F M34H | ND / 5.02 / ND | 5.02 | 2/9 (4.46) |
| F27K G50D I51K | ND / ND / 5.11 | 5.11 | 4/9 (4.71) |
| T28E G56W G102A | ND / 5.12 / ND | 5.12 | 1/9 (4.80) |
| G26W F29W G56F | ND / 5.22 / ND | 5.22 | 1/9 (4.87) |
| S52H I58W G103V | 5.25 / ND / ND | 5.25 | 3/9 (4.52) |
| G50W G100H | 5.29 / ND / ND | 5.29 | 0/9 |
| F29V I58Y K65Q | 5.69 / 4.86 / 5.38 | 5.31 | 6/9 (5.18) |
| Y32V G104F F106Y | 5.91 / ND / 4.85 | 5.38 | 4/9 (4.37) |

The remaining entries, values ahead:

| replicates, log10 nM | mean, log10 nM | signal with controls | changes |
|---|---|---|---|
| 5.81 / 5.39 / ND | 5.60 | 1/9 (4.77) | W53F V99F R101Y |
| 5.78 / ND / ND | 5.78 | 2/9 (4.38) | Y32N M34Y V64G |
| ND / 6.39 / ND | 6.39 | 5/9 (5.10) | S57N Y108T |
| ND / ND / ND | ND | 2/9 (4.43) | I58G G59I V64R |
| ND / ND / ND | ND | 1/9 (2.83) | G26A M34Y S63T |
| ND / ND / ND | ND | 1/9 (4.77) | A61W S63H D107P |
| ND / ND / ND | ND | 1/9 (4.69) | F27S R101Q G103C |
| ND / ND / ND | ND | 2/9 (4.80) | G56Q K65N Y108F |
| ND / ND / ND | ND | 0/9 | M34A R101I Y105G |
| ND / ND / ND | ND | 0/9 | I58T Y108C |
| ND / ND / ND | ND | 0/9 | H35Y S55L G102A |
| ND / ND / ND | ND | 0/9 | S55H G56E S63L |
| ND / ND / ND | ND | 0/9 | D31L K65A Y105L |
| ND / ND / ND | ND | 0/9 | F27I Y105D |
| ND / ND / ND | ND | 0/9 | T28W H35I |
| ND / ND / ND | ND | 0/9 | M34K Y60H G104S |
| ND / ND / ND | ND | 0/9 | A33D S57Y F106H |
| ND / ND / ND | ND | 0/9 | G26S G59D Y60D |
| ND / ND / ND | ND | 0/9 | T28W G56D V99F |
| ND / ND / ND | ND | 0/9 | G26D F29A G100T |
| ND / ND / ND | ND | 2/9 (3.74) | T28C G59H G103Q |
| ND / ND / ND | ND | 1/9 (3.98) | W53M G59V Y108M |
| ND / ND / ND | ND | 1/9 (2.87) | F29A A61L D107F |
| ND / ND / ND | ND | 1/9 (2.71) | A33N G56E A61S |
| ND / ND / ND | ND | 1/9 (2.43) | G26L Y32L I58V |
| ND / ND / ND | ND | 0/9 | Y32N H35F V64Y |

Extract of 5 entries:

| changes | replicates, log10 nM | mean, log10 nM | signal with controls |
|---|---|---|---|
| G56K Y60V F106N | 3.58 / 3.09 / 3.07 | 3.25 | 2/9 (5.45) |
| D31L K65A Y105L | ND / ND / ND | ND | 0/9 |
| T28Q I58A K65E | 1.12 / 1.08 / 0.29 | 0.83 | 6/9 (5.03) |
| S52H I58W G103V | 5.25 / ND / ND | 5.25 | 3/9 (4.52) |
| A33P G59H Y108N | 3.87 / 4.32 / ND | 4.10 | 1/9 (5.01) |